Measurements taken from article PMC6832895, “Evaluation of Cyclic Peptide Inhibitors of the Grb7 Breast Cancer Target: Small Change in Cargo Results in Large Change in Cellular Activity” (Molecules, 2019).
Several values for one entry are separate records, joined by “and”; a condition that tells them apart may be missing. Identical values can stand only once.

Amino acid sequences for entries named in this document (tags omitted). Residues count along the entry.
UniProt Q14451, 431-527 limits assumed: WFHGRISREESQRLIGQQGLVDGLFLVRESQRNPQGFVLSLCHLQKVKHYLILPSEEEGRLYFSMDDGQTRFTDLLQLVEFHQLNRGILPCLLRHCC

Columns and labels:
Grb7-SH2 domain = Grb7-SH2 domain (Homo sapiens, UniProt Q14451); assay: ITC binding of G7-peptides to Grb7-SH2
HeLa cells = assay: Internalization of peptide inside HeLa cells quantified using mass spectrometry; conditions: 20 μM peptide, 1 h, 37 °C, LC-MS/MS MRM
[1] = percentage of total unbound peptide (11 μM in buffer)

CC[C@H](C)[C@H](NC(=O)[C@H](CCCCN)NC(=O)[C@@H](NC(=O)[C@H](CCC(N)=O)NC(=O)[C@H](CCCNC(=N)N)NC(=O)[C@@H]1CSCC(=O)N[C@@H](Cc2c[nH]c3ccccc23)C(=O)N[C@@H](Cc2ccccc2)C(=O)N[C@@H](CCC(=O)O)C(=O)NCC(=O)N[C@@H](Cc2ccc(O)cc2)C(=O)N[C@@H](CC(=O)O)C(=O)N[C@@H](CC(N)=O)C(=O)N[C@@H]([C@@H](C)O)C(=O)N[C@@H](Cc2ccccc2)C(=O)N2CCC[C@H]2C(=O)N1)[C@@H](C)CC)C(=O)N[C@@H](Cc1c[nH]c2ccccc12)C(=O)N[C@@H](Cc1ccccc1)C(=O)N[C@@H](CCC(N)=O)C(=O)N[C@@H](CC(N)=O)C(=O)N[C@@H](CCCNC(=N)N)C(=O)N[C@@H](CCCNC(=N)N)C(=O)N[C@@H](CCSC)C(=O)N[C@@H](CCCCN)C(=O)N[C@@H](Cc1c[nH]c2ccccc12)C(=O)N[C@@H](CCCCN)C(=O)N[C@@H](CCCCN)C(N)=O [G7-18NATE-Pen]
Kd (Grb7-SH2 domain): 3.45 µM | Kb (Grb7-SH2 domain; ITC, 25 °C, 1 mM Na3PO4, 20 mM HEPES, 150 mM NaCl, 4 mM β-mercaptoethanol (pH 7.4), single-site binding model): 0.290 10^6 M^−1 | Total Concentration of Peptide Associated with Cells, Average (HeLa cells; medium without serum, triplicate, repeated on two independent days): 696.4 nM | Concentration of Peptide Associated with Pellet, Average (HeLa cells; medium without serum, pellet = membrane-associated, triplicate, two independent days): ~300 nM and 312.8 nM | % Unbound Peptide Associated with Pellet, Average (HeLa cells; [1]): 2.8% | % Unbound Peptide Associated with Supernatant, Average (HeLa cells; [1]): 2.0% | % Unbound Peptide Associated with Total Cell, Average (HeLa cells; percentage of total unbound peptide (11 μM measurable in buffer at end of incubation)): 6.2%
